# PubChem BioAssay AID871 (The Scripps Research Institute Molecular Screening Center, 2007)
# The entries are a selection whose mix differs from that of the whole data set. Activity calls are given as the source filed them.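 How the source made its calls: active means activation above the screen-wide mean of compound activation plus 3 SD (cut at about 130% in these data); inactive means the rest.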
# Assay: IL-6 driven STAT3 reporter potentiators, primary screen, U3A cells, luciferase, luminescence, MLSCN library (AID 871);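 further: 0% = background luminescence of wells with medium and substrate only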
# Settings: IL-6 STAT3-luciferase reporter, at 5.6 µM, hits give high values, 100% = signal with IL-6 EC80 alone
# How it was run: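 Material: STAT1-lacking human U3A cells, STAT3 luciferase reporter | Benchmarks: IL-6-only wells as 100% reference | Probe or stimulus: IL-6 (33 ng/mL) | Timing: Compound 1 h, then IL-6 6 h at 37 °C | Detection: Luminescence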
row,SMILES,activation (% of control)
1,O=[N+]([O-])c1ccc2c(c1)nnn2O,inactive: 106%
2,CCOP1(=S)c2c(C)nn(CCC#N)c2N=C(c2ccc(F)cc2)N1C (centres undefined),inactive: 106%
3,CCOP1(=S)c2c(C)nn(CCC#N)c2N=C(c2ccccc2F)N1C (centres undefined),inactive: 108%
4,O=P(Nc1nccs1)(Oc1ccccc1)Oc1ccccc1,inactive: 87.4%
5,O=P(Nc1nccs1)(c1ccccc1)c1nc2ccccc2s1 (centres undefined),inactive: 114%
6,Cc1ccc(NCCc2c([N+](=O)[O-])cc([N+](=O)[O-])cc2[N+](=O)[O-])cc1,inactive: 86.8%
7,COc1cc(C2NCCC3(OCCO3)C2(C)C)cc(OC)c1OC (centres undefined),inactive: 92%
8,CCOP(=O)(Nc1cccc2ccccc12)OCC,inactive: 107%
9,COc1cc(C(=O)NCC2(N3CCOCC3)CCCCC2)cc(Cl)c1OC(C)C,inactive: 122%
10,Cc1cccc(OCC(=O)OC2CN3CCC2CC3)c1 (centres undefined),inactive: 93.4%
11,CC1(CBr)Cn2c(nc3ccccc3c2=O)S1 (centres undefined),inactive: 93%
12,CC(C)/C=N\N=C(\N)N[N+](=O)[O-],inactive: 98.5%
13,O=P1(Nc2ccccn2)COc2ccccc2OC1,inactive: 104%
14,Clc1n[nH]nc1-c1nn[nH][15n]1,inactive: 98.4%
15,O=P1(Nc2ncccn2)COc2ccccc2OC1,inactive: 103%
16,Cc1ccc(OCC(=O)OC2CN3CCC2CC3)cc1 (centres undefined),inactive: 110%
17,O=P1(Nc2ccc(Br)cn2)COc2ccccc2OC1,inactive: 95.2%
18,Cc1nn(-c2ccccc2)c2c1P(=O)(N1CCOCC1)N(C)C(c1ccccc1)=N2 (centres undefined),inactive: 94.2%
19,CC1CCC(C(C)C)C(OP(=O)(Nc2ccccn2)c2ccccc2)C1 (centres undefined),inactive: 105%
20,CN(C)C1(CNC(=O)c2ccc(S(C)(=O)=O)cc2)CCCCC1,inactive: 104%
21,O=P(Nc1ccccn1)(c1cccc2ccccc12)c1cccc2ccccc12,inactive: 106%
22,Cc1cc(SC(NC=O)C(Cl)(Cl)Cl)ncn1 (centres undefined),inactive: 103%
23,Cc1cc(SC(NC(=O)c2ccccc2)C(Cl)(Cl)Cl)nc(C(C)C)n1 (centres undefined),inactive: 98.7%
24,CCC(C)N(CC(C)C)C(=S)SC(NC(C)=O)C(Cl)(Cl)Cl (centres undefined),inactive: 99.2%
25,COP1(=S)c2c(C)nn(CCC#N)c2N=C(c2ccc(F)cc2)N1C (centres undefined),inactive: 104%
26,O=C(COc1ccccc1)OC1CN2CCC1CC2 (centres undefined),inactive: 101%
27,COc1ccc(N/C(=N/P(=O)(N2CCOCC2)N2CCOCC2)N2CCOCC2)cc1,inactive: 99.5%

row,SMILES,activation (% of control)
1,O=C(OC1CN2CCC1CC2)C12CC3CC(CC(C3)C1)C2 (centres undefined),inactive: 118%
2,Cc1cc(=O)[nH]c(N[N+](=O)[O-])n1,inactive: 104%
3,Cc1c2c(nc3ccccc13)SC(C(Cl)Cl)C2 (centres undefined),inactive: 78.5%
4,COc1ccc2nc(NP(=O)(c3ccccc3)c3ccccc3)sc2c1,inactive: 104%
5,ClCCSc1nnc(-c2cccnc2)o1,inactive: 106%
6,CC(C)NC(=O)NP(=O)(Oc1ccccc1)Oc1ccccc1,inactive: 110%
7,CCN(CC)C(=S)SC(NC=O)C(Cl)(Cl)Cl (centres undefined),inactive: 90.7%
8,O=[N+]([O-])c1cc([N+](=O)[O-])c(-c2ccn[nH]2)s1,inactive: 97.7%
9,Cc1ccc2nc3c(c(C)c2c1)CC(C(Cl)Cl)S3 (centres undefined),inactive: 87.8%
10,CCN(N=Nc1nonc1N)c1nonc1N,inactive: 101%
11,Cc1cc(SC(NC(=O)c2ccc(F)cc2)C(Cl)(Cl)Cl)ncn1 (centres undefined),inactive: 103%
12,CCOP(=O)(Nc1ccccc1)OCC,inactive: 102%
13,CC(C)CC(=O)NC(Sc1ccc(Cl)cc1)C(Cl)(Cl)Cl (centres undefined),inactive: 111%
14,Oc1ccccc1CNc1ccccn1,inactive: 104%
15,O=C(NC(Sc1ccncn1)C(Cl)(Cl)Cl)c1ccccc1 (centres undefined),inactive: 104%
16,Cc1c2non([O-])c-2c(C)[n+](=O)[n+]1[O-],inactive: 99.4%
17,NC(=O)c1cc([N+](=O)[O-])cc([N+](=O)[O-])c1N,inactive: 98.9%
18,Cc1ccc(N/C(=N/P(=O)(N2CCOCC2)N2CCOCC2)N2CCOCC2)cc1,inactive: 105%
19,COc1ccccc1OP(=O)(Nc1ccc(C)cn1)Oc1ccccc1OC,inactive: 111%
20,CN1CCCC(OC(=O)C(c2ccccc2)c2ccccc2)C1 (centres undefined),inactive: 107%
21,Clc1ccc(Cl)c(NC2=NCC(CBr)S2)c1 (centres undefined),inactive: 94.4%
22,CCN(/C(=N/P(=O)(N1CCOCC1)N1CCOCC1)N1CCOCC1)c1ccc(OC)cc1,inactive: 95.6%
23,CC(C)=N/N=C(\N)N[N+](=O)[O-],inactive: 100%
24,CN(C)C(=O)OCCc1n(C)cc[n+]1C,inactive: 103%
25,CC1CCN(C(=O)Oc2c(Cl)cc(Cl)c3cccnc23)CC1,inactive: 96.5%
26,COc1ccc(C2=NCC(CBr)S2)cc1 (centres undefined),inactive: 105%
27,O=[N+]([O-])c1cccc2n[nH]nc12,inactive: 106%

row,SMILES,activation (% of control)
1,CC(=O)N1C2C3N(C(C)=O)C1C1N(C(C)=O)C(C(N1C(C)=O)N3C(C)=O)N2C(C)=O,inactive: 98.9%
2,Cc1ccc(NP(=O)(Oc2ccccc2)Oc2ccccc2)nc1,inactive: 109%
3,CCc1nc2c(n1)c1c(non1O)c1c2no[n+]1[O-],inactive: 88%
4,O=[N+]([O-])c1cc([N+](=O)[O-])c(CCNc2ccccc2)c([N+](=O)[O-])c1,inactive: 73.9%
5,O=[N+]([O-])c1ncn(CCn2ncnc2[N+](=O)[O-])n1,inactive: 97.6%
6,CC(=O)NC(SC(=S)N(C)C)C(Cl)(Cl)Cl (centres undefined),inactive: 107%
7,C(Cc1nn[nH]n1)Cc1nn[nH]n1,inactive: 87.2%
8,O=C(OC1CN2CCC1CC2)c1cccc(Cl)c1 (centres undefined),inactive: 98%
9,O=P(Nc1ccccn1)(c1ccc(Br)cc1)c1ccc(Br)cc1,inactive: 104%
10,CC(C)C(=O)NC(Sc1ccccc1)C(Cl)(Cl)Cl (centres undefined),inactive: 107%
11,O=P(Nc1nccs1)(c1ccccc1)c1ccccc1,inactive: 101%
12,c1nnnn1CCn1cnnn1,inactive: 100%
13,CC(=O)Nc1ccc(Oc2c([N+](=O)[O-])cc([N+](=O)[O-])cc2[N+](=O)[O-])cc1,inactive: 94.1%
14,O=P1(Nc2nc3ccc(Cl)cc3s2)COc2ccccc2O1 (centres undefined),inactive: 99.3%
15,CCOc1ccc(C2=NCC(CBr)S2)cc1 (centres undefined),inactive: 97%
16,CC(C)(C)C(=O)NC(Sc1ccccc1)C(Cl)(Cl)Cl (centres undefined),inactive: 106%
17,COC(=O)c1cc2c(s1)N=C(c1ccccc1)N(C)P2(=O)N1CCOCC1 (centres undefined),inactive: 108%
18,CC(=O)NC(SC(=S)N(CC(C)C)CC(C)C)C(Cl)(Cl)Cl (centres undefined),inactive: 110%
19,Cc1ccc(OP(=O)(Nc2ccccn2)Oc2ccc(C)cc2)cc1,inactive: 103%
20,CCC(=O)N1C2C3N(C(=O)CC)C1C1N(C(=O)CC)C(C(N1C(=O)CC)N3C(=O)CC)N2C(=O)CC,inactive: 95.7%
21,O=c1c2cc([N+](=O)[O-])ccc2[nH]c2c([N+](=O)[O-])cc([N+](=O)[O-])cc12,inactive: 51.1%
22,CCNC(=S)/N=C(\N)N[N+](=O)[O-],inactive: 107%
23,O=C(NC1CCS(=O)(=O)C1)NP(=S)(Oc1ccccc1)Oc1ccccc1 (centres undefined),inactive: 99.6%
24,c1ccc(-c2nn[nH]n2)c(-c2nn[nH]n2)c1,inactive: 97.2%
25,CCOC(=O)NC(Sc1ccccc1)C(Cl)(Cl)Cl (centres undefined),inactive: 99.7%
